Values quoted from earlier work, collected in article PMC3124785 (ACS chemical neuroscience, 2011).
pKi: −log10 of the molar value.

Target: eNOS
Details: read-out: Ki eNOS; cited from earlier work

Q: With `N=C(NCCC[C@H](N)C(=O)O)N[N+](=O)[O-]` [N^G-nitro-L-arginine] as the compound, how does the pKi read?
A: The pKi was 6.70 to 7.40.
